Screening results deposited in PubChem by several laboratories.
UUG fidelity: yeast start codon fidelity modulation | S. cerevisiae UUG-firefly luciferase reporter, luminescence/redox ratio | activity score, % at 18.7 µM | 0.13% of 350,000 active | AID 602363;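 active means replicate mean at a twofold rise or more, about +100% in these data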;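 further: firefly luciferase made from a UUG start codon reports start codon fidelity; reporter light over untreated wells divided by growth signal over untreated wells; some hits fall short of that in this replicate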
ERp5 block: blocks human ERp5 reductase activity on insulin; inhibition, % at 9.99 µM; ERp5 insulin aggregation, absorbance 650 nm, 90 min; Q15084; 350,000 compounds, 0.05% hits;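 active = mean replicate inhibition above about 25%, with every replicate also reaching it, limit read from the data, passing the limit was not always enough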
SMARCA2 act: SMARCA2 function activation, primary screen. activation, % at 9.1 µM. MG213 cells, MMTV-luciferase reporter, dexamethasone, overnight. 370,000 compounds, 1% hits; in the data active = activation above about 7.8%
PDI turbidity: inhibitors of human protein disulfide isomerase; PDI insulin aggregation turbidity, A650, 90 min; inhibition, % at 10 µM; 350,000 compounds, 0.052% hits; AID 588391; P07237;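 active = mean inhibition across replicates of 30% or more, whatever share of single replicates reach that level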
Rev-erbA mod: modulates human Rev-erb alpha binding to DNA | P20393 | Rev-erbα–FITC-DNA binding, fluorescence polarization, 90 min | activity, % at 10 µM | 370,000 compounds, 0.79% hits | AID 1259318;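 active = activity above about 14%, limit read from the data; passing the limit was not always enough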
GSIS activator: GLuc luminescence reporter in INS-1E cells, primary screen for activators of glucose-dependent secretion of insulin; INS-1E GLuc reporter insulin secretion, 2-3 h; 370,000 compounds, 0.61% hits; activation, % at 16.6 µM;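 active = lowest replicate activation of at least 40%, so every replicate reaches that level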
NR1D1 mod conf: Rev-erb alpha (human) modulation, hit confirmation. Rev-erb alpha FITC-DNA binding, fluorescence polarization, 90 min. 3,000 compounds, 61% hits. shares compounds with Rev-erbA mod. activation, % at 25 µM. AID 1259319;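 active = activation at or above a set limit, or at least 3 SD above the negative control mean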
RORg DNA counter: affects RORgamma DNA binding in a Rev-erb alpha counter-screen. 910 compounds, 8% hits. shares compounds with Rev-erbA mod. IC50, µM. purified RORgamma protein-FITC-DNA binding, fluorescence polarization;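 active = Compounds whose fitted half-maximal concentration for disrupting protein-DNA binding is below 10 micromolar; the record names Rev-erb in its text, so the target is in doubt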
A number is an active result; n = inactive; x = not tested or not shown. Rows were chosen to be rich in hits. Some 2.1% of all compounds tested hit in one or more screens of this group.

SMILES	UUG fidelity	ERp5 block	SMARCA2 act	PDI turbidity	Rev-erbA mod	GSIS activator	NR1D1 mod conf	others
O=C(N[C@@H]1CC[C@H](CCNS(=O)(=O)c2ccccc2Cl)O[C@@H]1CO)c1ccc(F)cc1	n	n	x	x	x	n	x
O=C(C[C@H]1C=C[C@@H](NC(=O)c2cccc(F)c2)[C@@H](CO)O1)Nc1nccs1	x	n	x	x	x	n	x
Cc1c(C(=O)Nc2ccncc2)sc2nc(-c3ccc(F)cc3)cn12	n	n	n	x	39	x	38	RORg DNA counter=n
COc1ccc(-c2cn3c(C)c(C(=O)Nc4ccncc4)sc3n2)cc1	n	n	n	x	n	n	x
O=C(CCSc1nnc2ccc3ccccc3n12)Nc1ccc(F)cc1	n	x	n	n	44	x	22
CC(C)c1cc(C(=O)OCC(=O)NC(=O)NCc2ccco2)c(O)c(C(C)C)c1	x	n	n	n	16	n	n
Cc1cc(C(F)(F)F)c2c(N)c(C(=O)Nc3cc(C)on3)sc2n1	x	x	n	n	86	x	60	RORg DNA counter=n
Nc1c(C(=O)Nc2ccccc2F)sc2nc(Cc3ccccc3)cc(C(F)(F)F)c12	n	n	n	n	108	n	81
Cc1cc(C(F)(F)F)c2c(N)c(C(=O)NCc3ccc(Cl)cc3)sc2n1	x	n	n	x	n	n	x
COc1ccccc1-c1ccc2c(c1)O[C@H](CN(C)C(=O)c1ccccc1)[C@H](C)CN([C@@H](C)CO)S2(=O)=O	n	n	x	x	x	n	x
CNC[C@H]1OCCCC[C@@H](C)Oc2ccc(NS(=O)(=O)c3ccccc3)cc2C(=O)N([C@H](C)CO)C[C@H]1C	n	n	x	x	x	n	x
CC(=O)c1cccc(NC(=O)c2cccc(NC(=O)c3ccco3)c2)c1	n	n	n	n	45	n	99	RORg DNA counter=5.7
CCCNC(=O)C[C@H]1C[C@H]2c3cc(NC(=O)c4cccnc4)ccc3O[C@H]2[C@H](CO)O1	n	x	x	x	x	n	x
CC(=O)Nc1ccc(O)c(-c2nc3ccccc3s2)c1	x	n	n	n	231	n	385	RORg DNA counter=n
Cc1ccsc1C(=O)Nc1ccc(O)c(-c2nc3ccccc3s2)c1	x	n	n	n	450	n	354	RORg DNA counter=n
O=C(Nc1ccc(OC(=O)c2ccccc2)c(-c2nc3ccccc3s2)c1)c1ccccc1	n	x	n	n	n	x	x
C=CCSc1nc(N)c(C#N)c(-c2ccc(C)cc2)c1C#N	n	x	n	n	n	x	x
Cc1ccc(-c2cc(-c3ccccc3Cl)c(C#N)c(N)n2)o1	n	x	n	n	n	x	x
N#Cc1c(N)nc(Sc2ccc(Cl)cc2)c(C#N)c1-c1ccccc1Cl	x	n	n	n	64	n	43	RORg DNA counter=n
CCSc1nc(N)c(C#N)c(-c2ccccc2Cl)c1C#N	n	x	n	n	25	n	22
CO[C@H]1CN(C)C(=O)c2ccc(NC(=O)C3CC3)cc2OC[C@@H](C)N(CCC(F)(F)F)C[C@H]1C	n	n	x	x	x	n	x
CC(C)CC1NC(=O)c2cc3ccccc3cc2-n2c1nc1ccc(Cl)cc1c2=O (stereo not drawn)	n	n	n	n	16	x	n
Nc1nnc(CCS(=O)(=O)c2cc(Cl)ccc2Cl)s1	x	x	n	n	n	x	x
Cc1ccccc1CN(C)CCS(=O)(=O)c1cc(Cl)ccc1Cl	n	n	n	n	16	n	n
CC(=O)Nc1ccc(-c2nc3cc(Cl)ccc3o2)cc1	n	n	n	n	n	n	x
SMILES	UUG fidelity	ERp5 block	SMARCA2 act	PDI turbidity	Rev-erbA mod	GSIS activator	NR1D1 mod conf	others
CC(C)(C)C(=O)Nc1ccc2oc(-c3cc(F)c(F)cc3Cl)nc2c1	n	x	n	n	22	n	n
Cc1sc(NC(=O)c2ccccc2)c(C(=O)c2ccccc2)c1C	n	n	n	n	n	x	x
Cc1sc(NC(=O)c2ccccc2)c(C(=O)NC(C)C)c1C	x	n	n	n	24	n	n
Cn1cc(/C=C/c2cc[n+](C)cc2)c2cc(F)ccc21	n	n	x	n	x	x	x
Cn1cc(/C=C/c2cc[n+](C)cc2)c2cc(Cl)ccc21	n	n	n	n	165	n	140	RORg DNA counter=n
O=c1oc(C2(O)CCCCC2)cc2ccccc12	n	n	n	n	n	x	x
O=c1oc(C2(O)CCCCC2)cc2ccc(-c3ccc4[nH]ccc4c3)cc12	n	n	n	n	22	x	n
